The assay addresses mouse PDGFR (Mus musculus, UniProt P05622). Briefly: biochemical.

Amino acid sequences for entries named in this document (tags omitted). Residues count along the entry.
UniProt P05622, 32-1098: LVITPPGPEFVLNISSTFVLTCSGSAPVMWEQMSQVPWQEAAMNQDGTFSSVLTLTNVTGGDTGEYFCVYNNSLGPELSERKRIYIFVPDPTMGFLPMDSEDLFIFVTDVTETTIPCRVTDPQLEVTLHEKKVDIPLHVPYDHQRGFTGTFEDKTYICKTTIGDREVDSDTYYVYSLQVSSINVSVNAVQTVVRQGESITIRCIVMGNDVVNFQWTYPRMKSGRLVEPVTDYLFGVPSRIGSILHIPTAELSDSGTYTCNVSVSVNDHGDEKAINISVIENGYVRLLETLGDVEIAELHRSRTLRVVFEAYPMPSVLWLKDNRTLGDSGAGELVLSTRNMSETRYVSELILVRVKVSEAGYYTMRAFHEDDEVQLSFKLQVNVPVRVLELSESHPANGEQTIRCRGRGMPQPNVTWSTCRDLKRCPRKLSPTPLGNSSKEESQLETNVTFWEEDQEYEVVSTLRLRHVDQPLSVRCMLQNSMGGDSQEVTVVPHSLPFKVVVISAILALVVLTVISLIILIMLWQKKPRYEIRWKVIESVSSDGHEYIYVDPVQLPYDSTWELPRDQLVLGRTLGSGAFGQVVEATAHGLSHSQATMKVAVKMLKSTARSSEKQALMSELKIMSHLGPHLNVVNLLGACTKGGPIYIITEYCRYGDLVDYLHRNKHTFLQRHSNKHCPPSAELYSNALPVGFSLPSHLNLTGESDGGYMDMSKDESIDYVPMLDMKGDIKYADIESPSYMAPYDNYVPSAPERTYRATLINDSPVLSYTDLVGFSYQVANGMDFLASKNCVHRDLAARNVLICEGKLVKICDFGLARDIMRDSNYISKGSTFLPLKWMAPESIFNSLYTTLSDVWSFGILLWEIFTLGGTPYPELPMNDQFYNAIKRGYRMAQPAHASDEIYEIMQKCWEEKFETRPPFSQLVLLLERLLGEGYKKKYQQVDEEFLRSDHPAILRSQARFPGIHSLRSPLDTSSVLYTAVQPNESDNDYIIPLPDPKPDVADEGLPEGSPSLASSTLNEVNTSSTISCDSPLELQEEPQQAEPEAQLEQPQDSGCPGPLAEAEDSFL

Usually IC50 stands for the concentration that inhibits the measured activity by half.

Consider `CNC(=O)c1cc(Oc2ccc(NC(=O)Nc3ccc(Cl)c(C(F)(F)F)c3)c(F)c2)ccn1` [Example 1, 4{4-[3-(4-chloro-3-trifluoromethylphenyl)-ureido]-3-fluorophenoxy}-pyridine-2-carboxylic acid methylamide], for which the IC50 is 83 nM.

The values are drawn from patent publication US8637553B2, “Fluoro substituted omega-carboxyaryl diphenyl urea for the treatment and prevention of diseases and conditions” (Bayer Healthcare LLC, priority 2003, dated 2014).
